Target: T1, HERG channel receptor (Rattus norvegicus, UniProt O08962)
T1 sequence (O08962 1-1163): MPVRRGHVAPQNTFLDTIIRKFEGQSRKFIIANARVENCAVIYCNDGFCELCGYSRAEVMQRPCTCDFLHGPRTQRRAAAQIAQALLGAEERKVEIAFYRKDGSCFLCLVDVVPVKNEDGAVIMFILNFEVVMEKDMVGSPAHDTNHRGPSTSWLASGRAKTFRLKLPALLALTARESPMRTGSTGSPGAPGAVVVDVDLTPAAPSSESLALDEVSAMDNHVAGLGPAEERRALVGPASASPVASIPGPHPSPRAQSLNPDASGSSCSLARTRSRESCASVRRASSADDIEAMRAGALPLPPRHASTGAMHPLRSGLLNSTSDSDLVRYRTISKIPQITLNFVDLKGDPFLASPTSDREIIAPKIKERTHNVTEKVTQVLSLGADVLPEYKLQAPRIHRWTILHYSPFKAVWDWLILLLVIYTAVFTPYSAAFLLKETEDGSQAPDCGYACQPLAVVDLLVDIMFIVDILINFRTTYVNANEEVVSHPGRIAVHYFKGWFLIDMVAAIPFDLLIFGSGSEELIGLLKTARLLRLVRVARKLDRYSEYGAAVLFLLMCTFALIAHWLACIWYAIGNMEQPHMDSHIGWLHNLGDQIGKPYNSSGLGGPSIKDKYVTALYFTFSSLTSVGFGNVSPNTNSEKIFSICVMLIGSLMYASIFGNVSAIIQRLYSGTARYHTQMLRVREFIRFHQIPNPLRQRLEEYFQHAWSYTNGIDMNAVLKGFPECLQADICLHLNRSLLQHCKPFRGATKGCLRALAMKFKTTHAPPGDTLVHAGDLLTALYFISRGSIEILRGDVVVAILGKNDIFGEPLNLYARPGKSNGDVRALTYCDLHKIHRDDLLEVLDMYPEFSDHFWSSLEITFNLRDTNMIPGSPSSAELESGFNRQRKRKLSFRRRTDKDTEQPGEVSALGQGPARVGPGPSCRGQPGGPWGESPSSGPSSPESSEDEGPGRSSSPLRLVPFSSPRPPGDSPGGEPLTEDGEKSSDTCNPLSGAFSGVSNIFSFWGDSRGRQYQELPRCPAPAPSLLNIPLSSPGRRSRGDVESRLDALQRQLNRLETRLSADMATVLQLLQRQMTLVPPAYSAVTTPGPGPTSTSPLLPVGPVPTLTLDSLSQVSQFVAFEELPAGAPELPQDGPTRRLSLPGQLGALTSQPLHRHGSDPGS
Assay: Competitive binding at HERG channel ([3H]dofetilide)
Conditions: read-out: Kd of radioligand at HERG channel receptor; rat striatal tissue

**Q.** For [3H]dofetilide [reference compound], which Kd is on record?
**A.** 5 nM

— patent US20100004289A1, “SUBSTITUTED BUTYROPHENONE DERIVATIVES” (priority 2005, published 2010)
